The values below come from US8288548B2, “Oxazolo[5-4-b]pyridin-5-yl compounds” (Eli Lilly and Company, priority 2010, dated 2012).

In this test the test system is 786-O human renal cell carcinoma cells. Briefly: 786-O xenograft model in combination with sunitinib. Format: in vivo, athymic nude mice. Conditions: Sunitinib 10 mg/kg PO, BID x 28; Day 31. The method, then: Female athymic nude mice are obtained from Harlan Labs at a weight of 24-26 g. After 1 week acclimation, 5×10^6 786-O human renal cell carcinoma cells are injected subcutaneously in the rear flank of each mouse in a 0.2 mL volume in a 1:1 mixture of cell culture media and BD MATRIGEL™ matrix. Tumor size is monitored by caliper measurement twice per week. […] The compound is dosed orally in a 0.2 mL volume of 1% HEC, 0.25% TWEEN® 80, 0.05% antifoam (HEC/TWEEN®). Dosing is performed twice per day (BID) at 15 mg/kg either alone or in combination with 10 mg/kg or 20 mg/kg of sunitinib, also dosed orally BID in the same vehicle. Tumor volume is monitored twice per week and efficacy (tumor growth inhibition) is compared relative to vehicle-treated control animals. […] Statistical assessment of synergy was performed using two-way repeated measures analysis of variance on log tumor volume vs. time.

For the compound `CCN(CC)CCNC(=O)c1c(C)[nH]c(/C=C2\C(=O)Nc3ccc(F)cc32)c1C` [Sunitinib], the “% Tumor Growth Inhibition” value was −27.7%.
